Data published in the supplement of paper PMC11403291.

Sequences of proteins named here, by UniProt entry; tags and fusion partners are left off. A change or cut given only in a name is not applied to a line headed by its entry.
UniProt P21802, whole entry, looked up: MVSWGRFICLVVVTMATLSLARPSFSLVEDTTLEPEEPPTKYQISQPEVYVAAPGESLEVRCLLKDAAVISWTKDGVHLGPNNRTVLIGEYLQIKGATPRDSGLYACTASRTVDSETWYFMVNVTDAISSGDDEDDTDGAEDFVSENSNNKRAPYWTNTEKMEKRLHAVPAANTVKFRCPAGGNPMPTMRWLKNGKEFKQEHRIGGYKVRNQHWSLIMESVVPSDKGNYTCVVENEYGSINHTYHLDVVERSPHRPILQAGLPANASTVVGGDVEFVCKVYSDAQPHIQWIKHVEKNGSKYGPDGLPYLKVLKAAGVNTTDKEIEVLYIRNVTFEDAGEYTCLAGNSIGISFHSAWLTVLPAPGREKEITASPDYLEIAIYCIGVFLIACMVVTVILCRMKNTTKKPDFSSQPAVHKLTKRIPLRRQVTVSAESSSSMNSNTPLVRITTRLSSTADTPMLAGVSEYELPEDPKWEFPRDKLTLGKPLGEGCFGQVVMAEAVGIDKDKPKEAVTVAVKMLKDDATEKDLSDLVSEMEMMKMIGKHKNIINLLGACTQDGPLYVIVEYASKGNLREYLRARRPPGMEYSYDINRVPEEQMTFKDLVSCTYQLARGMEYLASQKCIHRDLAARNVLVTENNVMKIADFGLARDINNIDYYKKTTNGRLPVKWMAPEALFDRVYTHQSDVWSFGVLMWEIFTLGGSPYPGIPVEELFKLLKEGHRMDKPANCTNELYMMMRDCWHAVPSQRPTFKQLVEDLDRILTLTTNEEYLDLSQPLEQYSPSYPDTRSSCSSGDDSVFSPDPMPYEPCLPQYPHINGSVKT
UniProt P06213, whole entry: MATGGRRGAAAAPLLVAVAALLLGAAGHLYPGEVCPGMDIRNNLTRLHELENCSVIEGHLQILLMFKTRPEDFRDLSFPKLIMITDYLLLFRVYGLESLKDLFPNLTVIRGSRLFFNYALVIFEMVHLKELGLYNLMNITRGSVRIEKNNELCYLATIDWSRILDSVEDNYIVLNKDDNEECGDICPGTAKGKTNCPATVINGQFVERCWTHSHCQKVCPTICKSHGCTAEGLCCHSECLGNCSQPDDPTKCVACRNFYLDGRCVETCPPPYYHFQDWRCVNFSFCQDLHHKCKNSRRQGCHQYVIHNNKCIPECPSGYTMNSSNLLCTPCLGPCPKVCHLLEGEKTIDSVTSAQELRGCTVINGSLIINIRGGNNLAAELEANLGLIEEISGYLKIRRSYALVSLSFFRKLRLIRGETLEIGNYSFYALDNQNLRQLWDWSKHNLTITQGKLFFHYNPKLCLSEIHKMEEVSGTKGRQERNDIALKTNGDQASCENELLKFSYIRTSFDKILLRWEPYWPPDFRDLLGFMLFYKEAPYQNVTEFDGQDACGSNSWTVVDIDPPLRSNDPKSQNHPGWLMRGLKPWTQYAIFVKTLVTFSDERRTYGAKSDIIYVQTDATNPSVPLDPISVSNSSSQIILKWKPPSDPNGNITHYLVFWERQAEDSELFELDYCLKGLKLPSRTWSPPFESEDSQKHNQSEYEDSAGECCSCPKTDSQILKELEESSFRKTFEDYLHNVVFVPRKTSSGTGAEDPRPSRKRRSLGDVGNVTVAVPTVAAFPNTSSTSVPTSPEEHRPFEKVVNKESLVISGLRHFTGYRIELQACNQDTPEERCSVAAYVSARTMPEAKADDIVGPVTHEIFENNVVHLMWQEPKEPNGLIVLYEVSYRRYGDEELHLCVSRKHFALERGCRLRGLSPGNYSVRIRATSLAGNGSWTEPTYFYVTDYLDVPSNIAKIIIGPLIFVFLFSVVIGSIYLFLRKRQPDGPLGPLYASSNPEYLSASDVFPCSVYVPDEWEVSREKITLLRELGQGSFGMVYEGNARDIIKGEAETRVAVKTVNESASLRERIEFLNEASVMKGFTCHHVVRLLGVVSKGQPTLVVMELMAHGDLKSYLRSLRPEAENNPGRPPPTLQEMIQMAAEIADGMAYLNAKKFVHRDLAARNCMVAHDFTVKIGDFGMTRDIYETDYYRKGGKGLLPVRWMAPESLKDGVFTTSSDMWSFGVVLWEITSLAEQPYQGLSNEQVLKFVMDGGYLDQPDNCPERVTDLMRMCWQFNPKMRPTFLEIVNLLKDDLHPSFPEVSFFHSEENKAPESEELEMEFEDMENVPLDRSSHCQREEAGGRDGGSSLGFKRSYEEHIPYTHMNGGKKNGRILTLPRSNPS
UniProt O96013: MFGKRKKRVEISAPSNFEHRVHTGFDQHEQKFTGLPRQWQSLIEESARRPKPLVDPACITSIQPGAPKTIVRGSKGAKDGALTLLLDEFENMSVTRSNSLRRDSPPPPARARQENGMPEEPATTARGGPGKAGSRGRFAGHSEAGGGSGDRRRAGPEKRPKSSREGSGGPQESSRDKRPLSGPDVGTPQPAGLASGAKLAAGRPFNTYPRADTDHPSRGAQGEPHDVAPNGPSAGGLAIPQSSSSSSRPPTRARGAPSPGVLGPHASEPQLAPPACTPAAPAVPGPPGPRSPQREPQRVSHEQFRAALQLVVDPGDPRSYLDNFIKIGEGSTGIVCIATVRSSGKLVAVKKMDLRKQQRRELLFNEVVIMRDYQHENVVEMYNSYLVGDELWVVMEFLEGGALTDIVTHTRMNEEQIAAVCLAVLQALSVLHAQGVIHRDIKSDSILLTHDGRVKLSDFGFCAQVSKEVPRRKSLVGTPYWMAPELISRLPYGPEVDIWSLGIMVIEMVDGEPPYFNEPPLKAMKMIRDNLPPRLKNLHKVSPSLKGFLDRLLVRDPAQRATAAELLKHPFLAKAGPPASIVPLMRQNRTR
UniProt Q9Y2I7: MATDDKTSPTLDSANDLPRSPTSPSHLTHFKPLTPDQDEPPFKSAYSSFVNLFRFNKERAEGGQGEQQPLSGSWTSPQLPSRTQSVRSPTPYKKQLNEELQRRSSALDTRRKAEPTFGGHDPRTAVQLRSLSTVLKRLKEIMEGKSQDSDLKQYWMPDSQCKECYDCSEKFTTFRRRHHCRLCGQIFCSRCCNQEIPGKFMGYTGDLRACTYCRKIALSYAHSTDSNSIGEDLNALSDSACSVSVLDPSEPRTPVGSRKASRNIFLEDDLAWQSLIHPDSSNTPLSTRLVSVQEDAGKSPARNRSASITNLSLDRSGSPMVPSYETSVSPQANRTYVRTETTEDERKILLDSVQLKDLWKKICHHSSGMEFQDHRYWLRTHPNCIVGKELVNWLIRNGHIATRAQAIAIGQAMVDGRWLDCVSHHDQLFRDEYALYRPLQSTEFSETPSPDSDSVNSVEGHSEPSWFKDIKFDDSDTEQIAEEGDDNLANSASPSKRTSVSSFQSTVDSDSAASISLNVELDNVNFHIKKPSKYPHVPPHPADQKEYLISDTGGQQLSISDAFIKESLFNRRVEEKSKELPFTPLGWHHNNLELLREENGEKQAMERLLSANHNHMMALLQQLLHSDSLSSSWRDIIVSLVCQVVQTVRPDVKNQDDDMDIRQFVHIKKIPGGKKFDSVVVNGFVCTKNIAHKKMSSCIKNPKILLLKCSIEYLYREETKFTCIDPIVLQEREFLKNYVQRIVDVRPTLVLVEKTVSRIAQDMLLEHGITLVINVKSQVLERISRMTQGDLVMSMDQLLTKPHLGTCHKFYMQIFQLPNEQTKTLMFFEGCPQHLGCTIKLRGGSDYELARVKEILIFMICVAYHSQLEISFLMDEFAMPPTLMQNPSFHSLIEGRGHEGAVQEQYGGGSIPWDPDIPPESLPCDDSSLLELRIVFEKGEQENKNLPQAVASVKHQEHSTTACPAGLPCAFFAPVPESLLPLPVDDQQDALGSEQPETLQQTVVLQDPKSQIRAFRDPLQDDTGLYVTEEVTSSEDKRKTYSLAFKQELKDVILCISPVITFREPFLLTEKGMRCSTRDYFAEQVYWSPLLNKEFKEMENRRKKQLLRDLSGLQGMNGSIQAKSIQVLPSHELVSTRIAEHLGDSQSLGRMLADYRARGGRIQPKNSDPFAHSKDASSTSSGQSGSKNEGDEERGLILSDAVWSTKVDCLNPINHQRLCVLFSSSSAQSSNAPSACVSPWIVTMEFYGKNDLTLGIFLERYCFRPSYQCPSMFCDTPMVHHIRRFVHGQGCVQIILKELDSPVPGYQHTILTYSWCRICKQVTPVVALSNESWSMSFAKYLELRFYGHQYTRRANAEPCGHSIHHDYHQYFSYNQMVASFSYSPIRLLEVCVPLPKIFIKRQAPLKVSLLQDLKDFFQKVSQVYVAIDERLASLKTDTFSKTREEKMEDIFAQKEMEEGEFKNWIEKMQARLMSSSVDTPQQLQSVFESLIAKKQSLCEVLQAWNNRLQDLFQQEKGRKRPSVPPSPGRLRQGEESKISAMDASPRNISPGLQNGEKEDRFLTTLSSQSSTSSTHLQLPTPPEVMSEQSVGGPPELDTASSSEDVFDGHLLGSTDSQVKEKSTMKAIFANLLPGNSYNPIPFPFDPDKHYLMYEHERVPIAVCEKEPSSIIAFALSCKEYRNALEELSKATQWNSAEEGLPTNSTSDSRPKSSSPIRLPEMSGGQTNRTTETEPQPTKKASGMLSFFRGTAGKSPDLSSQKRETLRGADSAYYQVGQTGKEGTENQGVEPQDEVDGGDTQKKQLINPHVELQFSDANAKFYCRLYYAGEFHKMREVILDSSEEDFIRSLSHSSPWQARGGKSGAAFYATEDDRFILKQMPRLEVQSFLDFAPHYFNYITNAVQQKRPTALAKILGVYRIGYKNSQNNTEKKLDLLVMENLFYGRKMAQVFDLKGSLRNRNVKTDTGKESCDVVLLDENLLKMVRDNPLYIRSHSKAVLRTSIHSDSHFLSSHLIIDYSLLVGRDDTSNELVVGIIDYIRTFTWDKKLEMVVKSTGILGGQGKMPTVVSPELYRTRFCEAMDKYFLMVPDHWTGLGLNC
UniProt P53350, whole entry: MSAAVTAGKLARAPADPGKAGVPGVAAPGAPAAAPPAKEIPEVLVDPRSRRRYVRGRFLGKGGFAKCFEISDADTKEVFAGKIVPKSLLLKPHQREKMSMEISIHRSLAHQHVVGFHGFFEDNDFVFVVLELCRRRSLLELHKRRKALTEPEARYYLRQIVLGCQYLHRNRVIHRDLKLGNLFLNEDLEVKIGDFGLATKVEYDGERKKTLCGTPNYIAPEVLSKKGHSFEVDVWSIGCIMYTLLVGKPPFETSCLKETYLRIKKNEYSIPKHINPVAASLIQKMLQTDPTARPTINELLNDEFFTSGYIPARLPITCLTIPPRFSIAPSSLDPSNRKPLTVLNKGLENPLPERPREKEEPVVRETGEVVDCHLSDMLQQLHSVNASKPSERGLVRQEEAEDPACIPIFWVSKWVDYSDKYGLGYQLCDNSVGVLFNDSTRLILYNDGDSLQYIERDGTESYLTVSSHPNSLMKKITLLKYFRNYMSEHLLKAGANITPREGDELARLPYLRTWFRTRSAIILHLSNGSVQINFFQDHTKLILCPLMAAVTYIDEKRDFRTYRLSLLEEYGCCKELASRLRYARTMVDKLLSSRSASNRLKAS
UniProt Q07912: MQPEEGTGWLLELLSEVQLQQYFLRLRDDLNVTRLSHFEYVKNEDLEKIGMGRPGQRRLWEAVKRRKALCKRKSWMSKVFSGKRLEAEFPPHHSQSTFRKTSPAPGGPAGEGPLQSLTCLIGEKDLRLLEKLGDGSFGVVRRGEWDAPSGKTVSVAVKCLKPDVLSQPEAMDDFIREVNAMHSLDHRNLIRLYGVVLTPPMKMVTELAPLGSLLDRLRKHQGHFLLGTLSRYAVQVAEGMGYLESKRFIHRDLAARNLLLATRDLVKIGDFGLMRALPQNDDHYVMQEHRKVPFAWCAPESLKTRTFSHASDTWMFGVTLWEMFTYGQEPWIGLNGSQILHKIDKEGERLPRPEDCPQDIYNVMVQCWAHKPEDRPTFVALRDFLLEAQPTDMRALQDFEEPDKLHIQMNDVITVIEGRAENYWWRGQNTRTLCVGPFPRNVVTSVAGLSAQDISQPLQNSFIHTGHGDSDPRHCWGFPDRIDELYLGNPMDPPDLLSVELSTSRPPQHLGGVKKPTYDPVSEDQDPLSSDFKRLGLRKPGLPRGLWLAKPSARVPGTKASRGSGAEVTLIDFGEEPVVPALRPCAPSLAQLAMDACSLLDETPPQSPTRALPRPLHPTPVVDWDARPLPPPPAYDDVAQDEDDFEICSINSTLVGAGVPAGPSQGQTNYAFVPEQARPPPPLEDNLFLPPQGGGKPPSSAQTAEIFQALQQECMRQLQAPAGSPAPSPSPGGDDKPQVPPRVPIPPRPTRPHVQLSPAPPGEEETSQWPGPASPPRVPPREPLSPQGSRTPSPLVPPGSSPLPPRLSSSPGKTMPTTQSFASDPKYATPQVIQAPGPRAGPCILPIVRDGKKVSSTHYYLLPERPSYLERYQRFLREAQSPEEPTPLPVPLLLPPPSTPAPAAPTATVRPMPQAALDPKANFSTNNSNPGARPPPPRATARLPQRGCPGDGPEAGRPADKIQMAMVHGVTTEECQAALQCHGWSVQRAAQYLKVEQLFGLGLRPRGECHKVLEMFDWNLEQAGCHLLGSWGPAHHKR

Columns and labels:
Test in all cases: apparent dissociation constant pKd app (kinobead competition) (-log10(M)); higher = stronger binding
ACVR1 = biological target: T1, ACVR1 (UniProt Q04771)
T1 sequence (whole entry): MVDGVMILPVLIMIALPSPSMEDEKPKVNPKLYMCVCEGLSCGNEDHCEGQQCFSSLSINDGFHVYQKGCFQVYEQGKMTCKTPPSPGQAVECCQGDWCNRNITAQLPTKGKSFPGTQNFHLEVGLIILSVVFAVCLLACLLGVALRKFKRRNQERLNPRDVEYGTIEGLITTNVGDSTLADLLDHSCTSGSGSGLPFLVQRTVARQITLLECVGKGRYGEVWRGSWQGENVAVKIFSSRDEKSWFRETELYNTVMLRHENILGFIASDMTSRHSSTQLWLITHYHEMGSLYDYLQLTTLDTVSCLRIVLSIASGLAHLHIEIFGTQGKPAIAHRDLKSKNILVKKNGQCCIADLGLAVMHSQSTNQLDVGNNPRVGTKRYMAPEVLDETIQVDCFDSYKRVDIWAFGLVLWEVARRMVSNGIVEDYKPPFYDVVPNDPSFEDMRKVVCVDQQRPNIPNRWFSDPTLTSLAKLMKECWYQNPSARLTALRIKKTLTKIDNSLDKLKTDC

FGFR2 = FGFR2 (UniProt P21802)
INSR = INSR (UniProt P06213)
MAP2K3 = biological target: T2, MAP2K3 (UniProt P46734)
T2 sequence (whole entry): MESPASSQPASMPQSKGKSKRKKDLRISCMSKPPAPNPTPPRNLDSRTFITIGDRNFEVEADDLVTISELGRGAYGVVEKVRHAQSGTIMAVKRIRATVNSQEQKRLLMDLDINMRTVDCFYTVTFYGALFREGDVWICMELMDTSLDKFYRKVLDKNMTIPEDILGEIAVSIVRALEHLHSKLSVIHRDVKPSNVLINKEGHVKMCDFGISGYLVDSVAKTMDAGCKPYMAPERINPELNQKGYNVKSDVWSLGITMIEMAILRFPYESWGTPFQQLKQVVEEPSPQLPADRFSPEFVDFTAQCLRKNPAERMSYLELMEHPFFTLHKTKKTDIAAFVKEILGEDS

MAPK8 = MAPK8 (UniProt P45983)
PAK4 = PAK4 (UniProt O96013)
PIP5K3 = PIP5K3 (UniProt Q9Y2I7)
PLK1 = PLK1 (UniProt P53350)
STK4 = biological target: T3, STK4 (UniProt Q13043)
T3 sequence (whole entry): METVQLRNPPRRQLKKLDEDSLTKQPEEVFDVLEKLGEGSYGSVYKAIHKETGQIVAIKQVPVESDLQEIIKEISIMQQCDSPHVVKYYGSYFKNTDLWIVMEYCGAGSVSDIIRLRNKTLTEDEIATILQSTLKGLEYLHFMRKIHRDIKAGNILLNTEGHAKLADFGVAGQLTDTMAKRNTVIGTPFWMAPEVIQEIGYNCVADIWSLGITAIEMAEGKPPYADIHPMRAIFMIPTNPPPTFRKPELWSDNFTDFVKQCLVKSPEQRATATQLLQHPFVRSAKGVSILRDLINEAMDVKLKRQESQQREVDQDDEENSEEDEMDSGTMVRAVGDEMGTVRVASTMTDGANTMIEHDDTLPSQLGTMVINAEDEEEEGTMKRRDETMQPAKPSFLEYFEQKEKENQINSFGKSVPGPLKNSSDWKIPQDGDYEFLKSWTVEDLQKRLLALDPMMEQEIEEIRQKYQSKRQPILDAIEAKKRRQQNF

TGFBR1 = biological target: T4, TGFBR1 (UniProt P36897)
T4 sequence (whole entry): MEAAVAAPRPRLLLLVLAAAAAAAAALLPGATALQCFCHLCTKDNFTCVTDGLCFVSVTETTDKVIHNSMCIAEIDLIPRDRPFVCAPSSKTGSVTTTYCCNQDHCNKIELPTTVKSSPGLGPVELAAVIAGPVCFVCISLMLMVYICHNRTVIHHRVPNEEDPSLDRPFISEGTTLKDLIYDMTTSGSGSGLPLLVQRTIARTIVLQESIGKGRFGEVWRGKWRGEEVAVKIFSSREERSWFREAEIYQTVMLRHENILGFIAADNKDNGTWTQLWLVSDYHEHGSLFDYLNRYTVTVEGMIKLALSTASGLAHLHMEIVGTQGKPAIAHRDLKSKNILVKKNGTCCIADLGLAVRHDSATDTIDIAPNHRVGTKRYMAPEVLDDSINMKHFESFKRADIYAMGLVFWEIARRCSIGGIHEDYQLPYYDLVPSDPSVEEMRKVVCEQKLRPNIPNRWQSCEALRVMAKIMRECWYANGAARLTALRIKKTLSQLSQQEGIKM

TNK2 = TNK2 (UniProt Q07912)

In the case of NC(=O)c1cccc2cn(-c3ccc([C@@H]4CCCNC4)cc3)nc12 [Niraparib], the “apparent dissociation constant pKd app (-log10)” value (ACVR1) is reported as less than 4.8, the “apparent dissociation constant pKd app (-log10)” value (FGFR2) is reported as less than 4.7 and the “apparent dissociation constant pKd app (-log10)” value (INSR) is reported as less than 4.5. The “apparent dissociation constant pKd app (-log10)” value (MAP2K3) was less than 4.5, the “apparent dissociation constant pKd app (-log10)” value (MAPK8) was less than 4.9 and the “apparent dissociation constant pKd app (-log10)” value (PAK4) was less than 4.7. For the same molecule, the “apparent dissociation constant pKd app (-log10)” value (PIP5K3) was less than 4.6, the “apparent dissociation constant pKd app (-log10)” value (PLK1) was less than 4.6 and the “apparent dissociation constant pKd app (-log10)” value (STK4) was less than 4.5. For the same molecule, the “apparent dissociation constant pKd app (-log10)” value (TGFBR1) was less than 4.6 and the “apparent dissociation constant pKd app (-log10)” value (TNK2) was less than 4.7.

In the case of O=C(c1cc(Cc2n[nH]c(=O)c3ccccc23)ccc1F)N1CCN(C(=O)C2CC2)CC1 [Olaparib], the “apparent dissociation constant pKd app (-log10)” value (ACVR1) is reported as less than 4.8, the “apparent dissociation constant pKd app (-log10)” value (FGFR2) is reported as less than 4.7 and the “apparent dissociation constant pKd app (-log10)” value (INSR) is reported as less than 4.5. For the same molecule, the “apparent dissociation constant pKd app (-log10)” value (MAP2K3) was less than 4.5, the “apparent dissociation constant pKd app (-log10)” value (MAPK8) was less than 4.9 and the “apparent dissociation constant pKd app (-log10)” value (PAK4) was less than 4.7. The “apparent dissociation constant pKd app (-log10)” value (PIP5K3) was less than 4.6, the “apparent dissociation constant pKd app (-log10)” value (PLK1) was less than 4.6 and the “apparent dissociation constant pKd app (-log10)” value (STK4) was less than 4.5. The “apparent dissociation constant pKd app (-log10)” value (TGFBR1) was less than 4.6 and the “apparent dissociation constant pKd app (-log10)” value (TNK2) was less than 4.7.

In the case of Cn1ncnc1[C@H]1c2n[nH]c(=O)c3cc(F)cc(c23)N[C@@H]1c1ccc(F)cc1 [Talazoparib], the “apparent dissociation constant pKd app (-log10)” value (ACVR1) is reported as less than 4.8, the “apparent dissociation constant pKd app (-log10)” value (FGFR2) is reported as less than 4.7 and the “apparent dissociation constant pKd app (-log10)” value (INSR) is reported as less than 4.5. For the same molecule, the “apparent dissociation constant pKd app (-log10)” value (MAP2K3) was less than 4.5, the “apparent dissociation constant pKd app (-log10)” value (MAPK8) was less than 4.9 and the “apparent dissociation constant pKd app (-log10)” value (PAK4) was less than 4.7. For the same molecule, the “apparent dissociation constant pKd app (-log10)” value (PIP5K3) was less than 4.6, the “apparent dissociation constant pKd app (-log10)” value (PLK1) was less than 4.6 and the “apparent dissociation constant pKd app (-log10)” value (STK4) was less than 4.5. For the same molecule, the “apparent dissociation constant pKd app (-log10)” value (TGFBR1) was less than 4.6 and the “apparent dissociation constant pKd app (-log10)” value (TNK2) was less than 4.7.
